From patent US20040180925A1, “Dipeptidylpeptidase-IV inhibitor” (priority 2000, published 2004)

By UniProt entry, the sequences of proteins in these tests, tags left out. Residues count along the entry.
UniProt P14740, 37-767 limits assumed: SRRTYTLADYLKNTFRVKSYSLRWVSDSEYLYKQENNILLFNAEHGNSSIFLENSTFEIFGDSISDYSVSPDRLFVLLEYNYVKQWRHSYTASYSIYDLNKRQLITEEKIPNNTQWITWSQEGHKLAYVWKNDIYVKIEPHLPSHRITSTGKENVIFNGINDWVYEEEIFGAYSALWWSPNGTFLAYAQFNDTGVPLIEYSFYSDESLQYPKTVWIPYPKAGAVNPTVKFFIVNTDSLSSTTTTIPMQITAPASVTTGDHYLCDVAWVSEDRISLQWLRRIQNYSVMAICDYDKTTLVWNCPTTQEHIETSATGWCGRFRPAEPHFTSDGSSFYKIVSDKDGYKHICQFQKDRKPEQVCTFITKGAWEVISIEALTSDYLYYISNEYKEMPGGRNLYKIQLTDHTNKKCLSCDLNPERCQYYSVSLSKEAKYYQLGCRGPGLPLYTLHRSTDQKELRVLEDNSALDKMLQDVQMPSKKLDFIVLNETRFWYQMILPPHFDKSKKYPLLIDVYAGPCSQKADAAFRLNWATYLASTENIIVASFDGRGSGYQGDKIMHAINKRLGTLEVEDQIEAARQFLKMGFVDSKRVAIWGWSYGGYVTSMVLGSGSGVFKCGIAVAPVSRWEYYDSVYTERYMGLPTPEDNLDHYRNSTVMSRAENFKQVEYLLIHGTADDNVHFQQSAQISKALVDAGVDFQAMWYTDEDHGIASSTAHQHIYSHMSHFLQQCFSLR

Biological target: T1, DPP-IV (Rattus norvegicus, UniProt P14740)
T1 construct: The coagulated blood was centrifuged at 3,000 rpm for 20 minutes to separate serum for use in the experiment; from tissue; host or cells: rat serum (blood from the crural aorta, coagulated and centrifuged)
Assay: Test for inhibitory action against DPP-IV (rat serum, Gly-Pro-AMC fluorescence)
Type: biochemical
Description: Under mild anesthesia with diethylether, a rat was incised at lower left side of the limb, and the crural aorta was cut and blood was collected. The collected blood was immediately ice-cooled. The coagulated blood was centrifuged at 3,000 rpm for 20 minutes to separate serum for use in the experiment. As reaction buffer, an aqueous solution containing HEPES (final concentration of 25 mmol/L) and sodium chloride (final concentration of 140 mmol/L) was prepared so as to give a final pH of 7.8, and used after addition of BSA (final concentration of 1%). An assay was conducted using a black, flat-bottomed 96 well plate. A test sample (2 μL) was added to each well, and the sample was added with rat serum (25 u L) and reaction buffer (25 u L) containing magnesium chloride (80 mmol/L), and the mixture was left stand at room temperature for 5 minutes. […] AMC, which was released by DPP-IV activity, was quantified by measurement of fluorescence at 460 nm which was excited at 390 nm. DPP-IV activity was calculated according to the following equation: […]
F100: Fluorescence intensity of AMC with addition of serum
F0: Fluorescence intensity of AMC without addition of serum
Fs: Fluorescence intensity of AMC with addition of a sample and serum

- IC50: 32 nM
Structure (SMILES): CC(C)(CNc1ccc(C#N)cn1)NCC(=O)N1CCC[C@H]1C#N [Compound 206, (S)-1-[3-(5-Cyano-2-pyridyl)amino-2-methyl-2-propylamino]acetyl-2-pyrrolidinecarbonitrile dihydrochloride]

Where a name gives a salt, the structure may show the parent alone.
